Assay in all cases: ATP assay (cytotoxicity assay), MMC-ABC and MMC
Data set [1] deals with MCF10A (normal human mammary cells). The conditions noted are these: 0.05-50 μM, 48 hours at 37° C., FIG. 10. As for the experimental part: (§1) (Condition 3) The cells were treated with 1 mM of N-acetyl cysteine (NAc-Cys) in the culture medium, and incubated for 2 hours at 37° C.
(§2) Results are shown in FIG. 10 [MCF10A (normal human mammary cells)] and FIG. 11 [A549 (human lung adenocarcinoma cells) and HeLa S3 (human cervical cancer cells)].

Data set [2] concerns HeLa S3 (human cervical cancer cells). The following applies: HeLa S3, 0.05-50 μM, 48 hours at 37° C., FIG. 11. As for the experimental part: as §1, §2
The subject of data set [3] is A549 (human lung adenocarcinoma cells). The following applies: A549, 0.05-50 μM, 48 hours at 37° C., FIG. 11. As for the experimental part: as §1, §2

The structures appear in SMILES notation.

Turning to `CO[C@@]12[C@H](COC(N)=O)C3=C(C(=O)C(C)=C(N)C3=O)N1C[C@@H]1N[C@@H]12` [mitomycin C], the “cytotoxicity (cell viability)” value was “nonspecifically exhibited cytotoxicity toward normal cells and cancer cells” in data set [1]; “nonspecifically exhibited cytotoxicity toward normal cells and cancer cells” in data set [2]; “nonspecifically exhibited cytotoxicity toward normal cells and cancer cells” in data set [3].
